This note sets out measurements from ChEMBL document CHEMBL1157539, “Thousands of chemical starting points for antimalarial lead identification” (Nature, 2010).

For part of these data: The highest values were mostly taken out for another list; the other results follow. The entries are a selection whose mix differs from that of the whole data set.

The test system of one assay is Plasmodium falciparum. As to the kind of experiment: GSK_TCMDC: Inhibition of Plasmodium falciparum 3D7 LDH activity, using an LDH reporter assay. Test compounds present at 2uM. The format is functional, organism-based.
Assay [1] is described as follows: GSK_TCMDC: Inhibition Frequency Index (IFI). The number of non-kinase HTS assays where a compound showed > 50 % inhibition, expressed as a percentage of the number of such assays in which the compound was tested (-0 is zero). The format is functional.

One may read the inhibition as the relative decrease from the control value, in per cent.

Turning to `N=C(N)c1ccc(Oc2ccc(C(=N)N)cc2)cc1`, in the assay on Plasmodium falciparum, the inhibition was 0%. Moreover, the IFI in assay [1] is 0%.

The compound `COc1ccc(Cc2cnc3nc(N)nc(N)c3c2C)cc1OC` returned an inhibition in the assay on Plasmodium falciparum of 0%. In assay [1], this compound showed an IFI of 3.17%.

In the assay on Plasmodium falciparum, `CCCCCc1cnc2nc(N)nc(N)c2c1` returned an inhibition of 0%. Moreover, the IFI in assay [1] was 2.07%.
